# Yeast mating assay B: variants of the scFv Ab-14

Reference: Li et al. 2023, doi:10.1038/s41467-023-39022-2. File: FLAb, binding data.

Binding partner: SARS-CoV-2 spike HR2 peptide, sequence PDVDLGDISGINAS.

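The parent was found by panning a naive human phage display library on the peptide. This is the validation round: designs drawn from the data on random variants, tested in the same kind of assay. Their group label is 14L_En_Gibbs (En: ensemble of fine-tuned language models; Gibbs: Gibbs sampling). The scFvs were displayed on barcoded MATa yeast, the peptide on MATalpha yeast. The frequency of each diploid, read from paired DNA barcodes, reflects how well the two displayed proteins bind. Each replicate has its own calibration line, from reference interactions of the BCL2 family. There are six technical replicates.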

Ab-14 is the parent antibody, in scFv form: VH, then a (GGGGS)3 linker, then VL. The heavy chain is unchanged in all variants.
VH: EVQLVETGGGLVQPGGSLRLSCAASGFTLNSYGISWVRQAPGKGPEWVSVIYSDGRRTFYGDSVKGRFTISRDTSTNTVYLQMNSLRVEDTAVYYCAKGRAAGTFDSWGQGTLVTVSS
VL: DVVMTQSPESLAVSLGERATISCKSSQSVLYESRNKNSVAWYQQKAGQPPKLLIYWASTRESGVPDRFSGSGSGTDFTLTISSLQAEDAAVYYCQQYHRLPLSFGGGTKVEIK

Sequences are complete VL domains.
The read-out is the apparent dissociation constant on a log10 scale (nM): the lower, the stronger.
Replicates are averaged; those with no signal do not enter the mean.
Where no diploid with the target was found in that replicate, the entry reads "n.d.": below detection, most likely a poor binder, though not proof of it.
Values of this round are not directly comparable with the first-round values of the same sequences.
The parent sequence was in this pool as ten entries: three were never detected, three once, and four in most replicates, with averages from 0.34 to 2.37.
In the paper, a design with two or fewer of six values counts as a poor binder.
Nonspecific signal, from three strains lacking the peptide, appeared in 4% of pairings of all light chain designs, centred on 2.64 (5% of these signals below 1.59); values are not corrected for it. Also given: how often the same scFv was detected with the empty control strains, with their mean in brackets.

| VL | log10 Kd, replicates | mean, log10 nM | empty controls |
|---|---|---|---|
| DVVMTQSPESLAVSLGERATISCSIQFFTENDAEWGDSIAWYQQKAGQPPKLLIYDVSATTAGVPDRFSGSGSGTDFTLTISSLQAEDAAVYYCQQYHRLPLAFGGGTKVEIK | 1.67 / n.d. / 1.26 / 1.62 / 1.90 / 1.64 | 1.62 | 0 of 18 |
| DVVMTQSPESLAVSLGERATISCTVKMELEMFAQDKHSVAWYQQKAGQPPKLLIYEAVERESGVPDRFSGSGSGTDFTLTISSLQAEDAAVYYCQQYHRLPLIFGGGTKVEIK | 0.52 / 0.66 / 0.46 / 0.37 / 0.75 / 0.46 | 0.54 | 1 of 18 (1.98) |
| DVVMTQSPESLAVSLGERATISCNMKVGLNFEDIQHQAIAWYQQKAGQPPKLLIYSVDERESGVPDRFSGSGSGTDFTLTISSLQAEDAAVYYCQQYARLPLTFGGGTKVEIK | 0.54 / 0.95 / 0.48 / 0.75 / 1.00 / 1.14 | 0.81 | 0 of 18 |
| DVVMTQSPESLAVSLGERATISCKIELDLTRYNAGGANIAWYQQKAGQPPKLLIYHETMKAQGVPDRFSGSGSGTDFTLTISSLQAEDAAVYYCQQYSRLPLIFGGGTKVEIK | 0.29 / 0.42 / 0.49 / 0.37 / 0.46 / 0.75 | 0.46 | 4 of 18 (2.58) |
| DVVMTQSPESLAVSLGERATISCQFDQFYRVGALNTDSIAWYQQKAGQPPKLLIYHAEMRVQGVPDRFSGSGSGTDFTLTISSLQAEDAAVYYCQSYNRLPLMFGGGTKVEIK | 0.94 / 0.89 / 0.64 / 1.00 / 0.96 / 1.13 | 0.93 | 4 of 18 (2.91) |
| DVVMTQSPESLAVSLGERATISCKFYSAWSGEIQNNNNIAWYQQKAGQPPKLLIYSADTLNHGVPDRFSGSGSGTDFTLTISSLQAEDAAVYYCQQYWTLPLSFGGGTKVEIK | n.d. / 0.73 / n.d. / 0.92 / 1.80 / 1.27 | 1.18 | 0 of 18 |
| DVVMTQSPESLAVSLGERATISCKITMSQYNWTSNYQAVAWYQQKAGQPPKLLIYEQNMRARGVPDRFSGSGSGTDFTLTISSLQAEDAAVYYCQSYYRLPFSFGGGTKVEIK | n.d. / 3.45 / 1.80 / 2.70 / 4.26 / n.d. | 3.05 | 1 of 18 (2.26) |
| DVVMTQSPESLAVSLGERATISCHVSSMDMTDGGIINSVAWYQQKAGQPPKLLIYGDKETERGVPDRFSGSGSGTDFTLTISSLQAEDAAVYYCQQYMRLPLSFGGGTKVEIK | n.d. / n.d. / n.d. / n.d. / n.d. / 2.88 | 2.88 | 0 of 18 |
| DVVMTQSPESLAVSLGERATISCKMNMAFQQDLMDEYSVAWYQQKAGQPPKLLIYDHMLAVTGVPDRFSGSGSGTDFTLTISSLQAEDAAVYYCQQYGRLPLSFGGGTKVEIK | n.d. / 3.88 / 2.51 / n.d. / 3.15 / 2.20 | 2.93 | 0 of 18 |
| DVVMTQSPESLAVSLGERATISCQINHQGLSANLNDKNVAWYQQKAGQPPKLLIYAKNLRVDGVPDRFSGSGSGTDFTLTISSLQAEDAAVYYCQQYNRLPLSFGGGTKVEIK | 0.15 / 0.00 / -0.04 / 0.08 / 0.56 / 0.32 | 0.18 | 0 of 18 |
| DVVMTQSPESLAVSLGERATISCQIAMEMYHGLNDNQNIAWYQQKAGQPPKLLIYDAMTYIKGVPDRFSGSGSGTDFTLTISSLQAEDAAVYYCQQYSRLPLFFGGGTKVEIK | n.d. / n.d. / n.d. / n.d. / n.d. / n.d. | n.d. | 1 of 18 (2.02) |
| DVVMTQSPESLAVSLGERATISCRIQDHMAVGEMRHSSIAWYQQKAGQPPKLLIYEESTRMDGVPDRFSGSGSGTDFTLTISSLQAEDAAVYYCQQYSRLPLAFGGGTKVEIK | 0.56 / 0.53 / 0.01 / 0.45 / 0.51 / 0.60 | 0.44 | 0 of 18 |
| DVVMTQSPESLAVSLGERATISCQLTWRAFNGDSVMNNVAWYQQKAGQPPKLLIYDNVHAQYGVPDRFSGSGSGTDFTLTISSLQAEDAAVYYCQQYSRLPFTFGGGTKVEIK | 0.78 / 0.93 / 0.37 / 0.59 / 0.65 / 0.27 | 0.60 | 0 of 18 |
| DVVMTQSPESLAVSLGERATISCALALTLHQVDSQMNNIAWYQQKAGQPPKLLIYQGMERESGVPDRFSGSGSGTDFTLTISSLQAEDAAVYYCQQYNRLPLGFGGGTKVEIK | 2.04 / 1.90 / 1.34 / 1.19 / 1.78 / 1.68 | 1.65 | 1 of 18 (3.05) |
| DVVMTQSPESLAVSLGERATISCMFLKEDFQQLAAKNAIAWYQQKAGQPPKLLIYNAREAVTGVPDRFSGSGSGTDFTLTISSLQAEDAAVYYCQHYFRLPLVFGGGTKVEIK | n.d. / 2.92 / n.d. / n.d. / n.d. / n.d. | 2.92 | 0 of 18 |
| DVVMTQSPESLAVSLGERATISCNVGGEDPGQWYMWDSIAWYQQKAGQPPKLLIYGSSLRAEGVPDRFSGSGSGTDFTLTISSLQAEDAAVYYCQQYWRLPLMFGGGTKVEIK | 0.84 / 1.52 / 0.55 / 1.51 / 1.22 / 0.99 | 1.11 | 0 of 18 |
| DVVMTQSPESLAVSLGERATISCTLMYWGEWEGENKKSVAWYQQKAGQPPKLLIYNAIIKNEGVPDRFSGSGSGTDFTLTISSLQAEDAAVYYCQQYSRLPLAFGGGTKVEIK | n.d. / n.d. / 1.87 / 1.24 / 1.61 / 0.93 | 1.41 | 0 of 18 |
| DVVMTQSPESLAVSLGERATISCMLPESLPQQQDNVNAVAWYQQKAGQPPKLLIYGAQHTAVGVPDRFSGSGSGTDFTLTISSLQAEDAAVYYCQQYGRLPLTFGGGTKVEIK | 0.31 / 0.17 / 0.17 / 0.39 / 0.25 / 0.66 | 0.32 | 1 of 18 (2.79) |
| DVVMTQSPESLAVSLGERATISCMISMEEAPAGQQESSIAWYQQKAGQPPKLLIYHGGTKAEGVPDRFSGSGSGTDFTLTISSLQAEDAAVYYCQQYNRLPLCFGGGTKVEIK | 0.99 / 0.51 / 0.23 / 0.67 / 0.62 / 0.96 | 0.66 | 2 of 18 (2.89) |
| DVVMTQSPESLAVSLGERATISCHVHMECAEEKNKYYNIAWYQQKAGQPPKLLIYDASMRLAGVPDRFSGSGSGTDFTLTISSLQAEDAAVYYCQQYVRLPLGFGGGTKVEIK | 0.63 / 0.86 / 0.51 / 0.68 / 0.69 / 0.66 | 0.67 | 0 of 18 |
| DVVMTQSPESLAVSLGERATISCQFSNVNMQGNAMWANVAWYQQKAGQPPKLLIYEATYAEEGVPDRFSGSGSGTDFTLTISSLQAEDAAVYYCQQYARLPLQFGGGTKVEIK | n.d. / 1.35 / n.d. / n.d. / n.d. / n.d. | 1.35 | 0 of 18 |
| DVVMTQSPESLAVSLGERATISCQINVDRLMNYLLNDAIAWYQQKAGQPPKLLIYGKTLRVDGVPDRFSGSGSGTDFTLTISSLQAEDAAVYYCQQYARLPLSFGGGTKVEIK | 0.49 / 0.26 / -0.03 / -0.04 / 0.09 / 0.23 | 0.17 | 0 of 18 |
| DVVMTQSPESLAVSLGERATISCFITGNYYDKYQASNSIAWYQQKAGQPPKLLIYDEAHIRAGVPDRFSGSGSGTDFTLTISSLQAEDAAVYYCQQYDLLPLSFGGGTKVEIK | n.d. / n.d. / n.d. / n.d. / n.d. / n.d. | n.d. | 0 of 18 |
| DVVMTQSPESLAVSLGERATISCKITMYELEMRFNGSAVAWYQQKAGQPPKLLIYAAEVRANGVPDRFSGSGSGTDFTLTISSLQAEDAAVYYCQQYWRLPLEFGGGTKVEIK | 2.12 / 1.95 / 1.88 / n.d. / 1.19 / n.d. | 1.79 | 0 of 18 |

Extract of 3 entries:

VL	log10 Kd, replicates	mean, log10 nM	empty controls
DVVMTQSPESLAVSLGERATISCKITMSQYNWTSNYQAVAWYQQKAGQPPKLLIYEQNMRARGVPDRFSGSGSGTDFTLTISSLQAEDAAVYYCQSYYRLPFSFGGGTKVEIK	n.d. / 3.45 / 1.80 / 2.70 / 4.26 / n.d.	3.05	1 of 18 (2.26)
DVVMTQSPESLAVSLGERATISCQFDQFYRVGALNTDSIAWYQQKAGQPPKLLIYHAEMRVQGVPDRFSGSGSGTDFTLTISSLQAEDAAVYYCQSYNRLPLMFGGGTKVEIK	0.94 / 0.89 / 0.64 / 1.00 / 0.96 / 1.13	0.93	4 of 18 (2.91)
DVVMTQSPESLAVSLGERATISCRIQDHMAVGEMRHSSIAWYQQKAGQPPKLLIYEESTRMDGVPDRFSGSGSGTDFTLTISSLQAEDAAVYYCQQYSRLPLAFGGGTKVEIK	0.56 / 0.53 / 0.01 / 0.45 / 0.51 / 0.60	0.44	0 of 18